The values below come from patent US8168648B2, “Camptothecin derivatives and uses thereof” (Taiwan Liposome Co., Ltd., priority 2009, dated 2012).

What all share (format): cell-based
One test deals with HCT-116. As to the kind of experiment: In vitro cytotoxicity assay (SRB), HCT-116. The settings on record: HCT-116 (Human colon cancer), 72 hours of incubation.
A further test concerns MCF-7. Briefly: In vitro cytotoxicity assay (SRB), MCF-7. Conditions: MCF-7 (Human breast cancer), 72 hours of incubation.
Another test deals with DMS-114. Briefly: In vitro cytotoxicity assay (SRB), DMS-114. The settings on record: DMS-114 (Small cell lung cancer), 72 hours of incubation.
For another test, the system named is PC14PE6/AS2. As to the kind of experiment: In vitro cytotoxicity assay (SRB), PC14PE6/AS2. Conditions: PC14PE6/AS2 (Non-small cell lung cancer), 72 hours of incubation.

`CC(ON=C1c2cc([N+](=O)[O-])cc([N+](=O)[O-])c2-c2c1cc([N+](=O)[O-])cc2[N+](=O)[O-])C(=O)O` (stereo not shown): the IC50 (in general, the concentration that inhibits the measured activity by half) in the test on HCT-116 was over 10 µM; with MCF-7, 6.19 µM; with DMS-114, 0.925 µM; in the test on PC14PE6/AS2, 3.33 µM.
